# Values of other authors in paper PMC8198056, “Antinociceptive Efficacy of the µ-Opioid/Nociceptin Peptide-Based Hybrid KGNOP1 in Inflammatory Pain without Rewarding Effects in Mice: An Experimental Assessment and Molecular Docking” (Molecules, 2021).
# Chains of the proteins cited; added tags and fusions are not shown. Lines headed by an entry give the natural chain unless they say otherwise; changes in a name come on top.
# UniProt P41146: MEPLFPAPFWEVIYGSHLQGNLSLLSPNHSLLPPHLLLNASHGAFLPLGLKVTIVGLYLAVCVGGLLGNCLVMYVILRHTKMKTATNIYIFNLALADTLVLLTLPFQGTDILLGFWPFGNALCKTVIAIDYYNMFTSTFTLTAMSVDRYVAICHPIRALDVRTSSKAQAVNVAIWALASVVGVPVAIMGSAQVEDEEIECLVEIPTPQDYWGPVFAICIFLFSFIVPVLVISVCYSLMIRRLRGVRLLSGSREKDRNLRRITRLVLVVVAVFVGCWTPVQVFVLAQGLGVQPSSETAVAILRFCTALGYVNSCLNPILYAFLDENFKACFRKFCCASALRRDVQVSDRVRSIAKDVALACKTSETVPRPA
# Target: T1, human NOP receptor (Homo sapiens, UniProt P41146)
# T1 construct: expressed in transfected cells; host or cells: CHO (CHO-hNOP; gift of Lawrence Toll, SRI International)
# Parameters: method as in PMID 27035422
# Settings: forskolin-stimulated cAMP assay, HEK293 human NOP; cited from earlier work
smiles,measurement,value
"CC[C@H](C)[C@H](NC(=O)[C@H](CCCNC(=N)N)NC(=O)[C@H](Cc1ccc(O)cc1)NC(=O)[C@H](Cc1ccc(O)cc1)NC(=O)[C@H](CCCNC(=N)N)NC(=O)CCN1Cc2ccccc2C[C@H](NC(=O)[C@@H](CCCNC(=N)N)NC(=O)[C@@H](N)Cc2c(C)cc(O)cc2C)C1=O)C(=O)N[C@@H](CCCCN)C(N)=O [KGNOP1, H-Dmt-D-Arg-Aba-β-Ala-Arg-Tyr-Tyr-Arg-Ile-Lys-NH2]",pA2 (antagonist profile to the NOP receptor),5.39
